Like-named read-outs stand apart in the source and are kept apart here.
Molecular target: α2A-AR (Rattus norvegicus, UniProt P22909)
Type: cell-based

Sequences of proteins named here, by UniProt entry; tags and fusion partners are left off.
UniProt P22909, whole entry: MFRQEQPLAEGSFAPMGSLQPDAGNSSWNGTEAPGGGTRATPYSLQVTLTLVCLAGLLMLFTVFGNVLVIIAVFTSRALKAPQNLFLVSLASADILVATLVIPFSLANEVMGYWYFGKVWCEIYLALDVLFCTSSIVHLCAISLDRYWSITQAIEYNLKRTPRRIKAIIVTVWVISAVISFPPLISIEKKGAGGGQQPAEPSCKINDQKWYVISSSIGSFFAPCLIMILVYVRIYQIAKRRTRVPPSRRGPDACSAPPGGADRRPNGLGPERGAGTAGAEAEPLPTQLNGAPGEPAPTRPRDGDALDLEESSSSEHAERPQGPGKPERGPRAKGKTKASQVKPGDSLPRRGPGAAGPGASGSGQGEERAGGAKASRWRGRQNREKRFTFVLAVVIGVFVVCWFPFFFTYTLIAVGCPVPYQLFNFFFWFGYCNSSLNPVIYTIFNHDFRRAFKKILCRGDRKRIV

SMILES	Kb	EC50 (EPI EC50, control, no RS79948)	EC50 (EPI EC50, pre-treatment with 3nM RS79948)	EC50 (EPI EC50, pre-treatment with 10nM RS79948)	EC50 (EPI EC50, pre-treatment with 30nM RS79948)
Cc1cc(C(C)(C)C)cc(C)c1CC1=NCCN1 [xylometazoline]	0.0562 µM				
COc1cc2nc(N3CCN(C(=O)C4CCCO4)CC3)nc(N)c2cc1OC (stereo not drawn) [terazosin]	5.01 µM				
CNC[C@H](O)c1ccc(O)c(O)c1 [EPI, epinephrine]		0.095 ± 0.016 µM	0.423 ± 0.148 µM	1.21 ± 0.204 µM	3.22 ± 1.95 µM

Reference: article PMC10710878 (Journal of receptor and signal transduction research, 2022)
